{"sequences": {"note": "Amino acid sequences for entries named in this document (tags omitted).", "UniProt P49862, whole entry": "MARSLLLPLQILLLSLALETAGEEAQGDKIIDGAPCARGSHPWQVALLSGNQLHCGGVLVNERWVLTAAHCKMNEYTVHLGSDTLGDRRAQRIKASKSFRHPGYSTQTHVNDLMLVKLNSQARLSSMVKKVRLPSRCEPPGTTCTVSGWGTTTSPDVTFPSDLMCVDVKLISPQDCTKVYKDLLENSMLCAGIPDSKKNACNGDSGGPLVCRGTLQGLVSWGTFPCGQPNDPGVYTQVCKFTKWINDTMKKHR"}, "source": "PubChem BioAssay AID652039", "about": "(The Scripps Research Institute Molecular Screening Center, 2013)", "note": "The entries are a selection whose mix differs from that of the whole data set. Some results for these compounds are left out of this collection, so the calls shown say nothing about other tests. Active and inactive are the calls of the source.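 The calls were made as follows: active = activation above the mean of all tested compounds plus 3 SD, computed per campaign excluding outliers beyond control limits (cut at about 13% in these data); inactive = the rest.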"}
{"biological_target": "Kallikrein-7 (Homo sapiens) (UniProt P49862)", "assay": "proKLK7 zymogen activators, primary screen, biochemical, fluorescence intensity (AID 652039)", "conditions": "purified proKLK7, EDANS-DABCYL substrate fluorescence; at 7 µM; hits give high values; 100% is mature enzyme control, 0% vehicle"}
{"compound": "C=C(C)C#CC(O)(C(=O)OC1CCN(C)CC1)c1ccccc1", "note": "(stereo unspecified)", "activation": "inactive: -0.46%"}
{"compound": "COc1ccc(Br)c(C(=O)NCC2(N3CCCCC3)CCCCC2)c1", "activation": "inactive: -0.22%"}
{"compound": "CC(C)Oc1ccc(C(=O)NCC2(N(C)C)CCCCC2)cc1", "activation": "inactive: 0.26%"}
{"compound": "O=C(OCCN1CCCC1)C(O)(c1ccccc1)c1ccccc1", "activation": "inactive: 0.02%"}
{"compound": "CN(C)c1cccc(C(=O)NCC2(N(C)C)CCCCC2)c1", "activation": "inactive: 0.98%"}
{"compound": "O=C(OC1CN2CCC1CC2)C(CO)(c1ccccc1)c1ccccc1", "note": "(stereo unspecified)", "activation": "inactive: -0.28%"}
{"compound": "COc1cccc(C(=O)NCC2(N3CCCCC3)CCCCC2)c1", "activation": "inactive: -0.09%"}
{"compound": "COc1ccc(Cl)cc1C(=O)NCC1(N(C)C)CCCCC1", "activation": "inactive: 0.02%"}
{"compound": "O=C(NCC1(N2CCCCC2)CCCCC1)c1cccc(Cl)c1", "activation": "inactive: 0.41%"}
{"compound": "CN(C)C1(CNC(=O)c2ccc(Br)cc2)CCCCC1", "activation": "inactive: -0.07%"}
{"compound": "COc1cc(C(=O)NCC2(N(C)C)CCCCC2)c([N+](=O)[O-])cc1OC", "activation": "inactive: -0.75%"}
{"compound": "C=CCN1CCN(CCOC(=O)C(O)(c2ccccc2)c2ccccc2)CC1", "activation": "inactive: 0.51%"}
{"compound": "O=C(NCC1(N2CCCCC2)CCCCC1)c1cc(F)c(F)cc1Cl", "activation": "inactive: -0.24%"}
{"compound": "COc1ccc(C(=O)NCC2(N(C)C)CCCCC2)cc1", "activation": "inactive: 0.03%"}
{"compound": "CCN1CCCC(OC(=O)C2(O)c3ccccc3C=Cc3ccccc32)C1", "note": "(stereo unspecified)", "activation": "inactive: 0.3%"}
{"compound": "Cc1cc(C(=O)NCC2(N3CCCCC3)CCCCC2)ccc1[N+](=O)[O-]", "activation": "inactive: 0.5%"}
{"compound": "O=C(NCC1(N2CCCCC2)CCCCC1)c1cccc(Br)c1", "activation": "inactive: -0.14%"}
{"compound": "Cc1ccccc1C(=O)NCC1(N2CCCCC2)CCCCC1", "activation": "inactive: 0.1%"}
{"compound": "CN(C)c1ccc(C(=O)NCC2(N(C)C)CCCCC2)cc1", "activation": "inactive: -0.13%"}
{"compound": "CN(C)C1CCCC1OC(=O)C(O)(c1ccccc1)c1ccccc1", "note": "(stereo unspecified)", "activation": "inactive: -0.25%"}
{"compound": "CCN(CC)CC(C)C(C)OC(=O)C(O)(c1ccccc1)c1ccccc1", "note": "(stereo unspecified)", "activation": "inactive: -0.79%"}
{"compound": "COc1cc(SC)ccc1C(=O)NCC1(N(C)C)CCCCC1", "activation": "inactive: -0.38%"}
{"compound": "CC(C)N1C(=O)CC2(CCN(CCOC(=O)C(O)(c3ccccc3)c3ccccc3)CC2)C1=O", "activation": "inactive: 0.32%"}
{"compound": "Cc1ccc(C(=O)NCC2(N3CCCCC3)CCCCC2)cc1", "activation": "inactive: 0.6%"}
{"compound": "O=C(NCC1(N2CCCCC2)CCCCC1)c1cc([N+](=O)[O-])ccc1Cl", "activation": "inactive: 0.61%"}
{"compound": "CN1[C@@H]2CC[C@H]1CC(OC(=O)C(O)(c1ccccc1)c1ccccc1)C2", "note": "(stereo partly specified)", "activation": "inactive: 0.01%"}
